# Measured affinities in a library of Ab-14 light chain variants

Reference: Engelhart et al. 2022, doi:10.1038/s41597-022-01779-4. File: FLAb, binding data.

Antigen: PDVDLGDISGINAS, a 14-residue peptide of the SARS-CoV-2 spike HR2 region.

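Phage display of a naive human antibody library on the peptide gave the parent. Variants in AAYL50 differ from the parent at up to three CDR positions; double and triple changes were sampled at random. AlphaSeq pools MATa yeast showing the antibodies with MATalpha yeast showing the peptide. After mating in shaken culture at 30 °C for 16 h, diploids were selected and their barcode pairs sequenced. A regression on co-assayed BCL2-family reference pairs converts the normalised counts of each replicate to an apparent Kd. There are three technical replicates.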

Each scFv is VH, the linker GGGGSGGGGSGGGGS, VL, as in the parent Ab-14, and differs from it in the CDRs of the light chain only.
VH: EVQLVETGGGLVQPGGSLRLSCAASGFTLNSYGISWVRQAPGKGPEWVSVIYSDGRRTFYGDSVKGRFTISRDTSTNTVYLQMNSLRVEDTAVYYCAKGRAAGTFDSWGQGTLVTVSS
VL: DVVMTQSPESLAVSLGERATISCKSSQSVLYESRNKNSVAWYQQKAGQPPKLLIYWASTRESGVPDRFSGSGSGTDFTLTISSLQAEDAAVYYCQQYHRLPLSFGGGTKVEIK

Positions count from residue 1 of the parent VL; S62H puts H in place of S. Affinities are written as log10 Kd with Kd in nM; a lower number is a better binder. "nd" marks a missing value. The strain was present, yet no cells mated with the target were sequenced in that replicate, which points to weak or no binding. Background: pairings of library AAYL50 with three empty control strains gave a value in 18% of cases (median 4.19, 5th percentile 2.99). Values in that range, when seen in few replicates, are hard to tell from nonspecific mating. The control count says in how many pairings with the empty strains this scFv gave a signal, with their mean in brackets. For reference, the parent read 0.65 as the reference entry and 1.68 as a member of this library.

changes,log10 Kd (nM) by replicate,signal with controls
S62H Q95T L102N,nd 3.66 nd,1 of 9 (3.05)
H98E,1.15 1.23 1.28,6 of 9 (4.89)
S26Q Q27P T59Q,2.62 2.24 nd,1 of 9 (4.17)
S26V R34A S38K,2.82 nd 3.97,0 of 9
S33I T59R S62E,2.38 3.47 2.81,4 of 9 (4.11)
N35F S58F R60S,5.42 nd nd,2 of 9 (4.42)
W56E E61T Q96C,0.16 0.42 0.32,4 of 9 (4.99)
V29H E32N E61P,2.15 2.16 2.88,3 of 9 (4.00)
S33A A40M L102H,nd nd nd,1 of 9 (3.60)
Q27H E61L P101S,1.46 1.62 1.57,3 of 9 (5.66)
S25V S28H S62N,2.08 1.74 2.15,1 of 9 (4.31)
V29G L30W A57G,1.09 1.11 1.12,0 of 9
K24V E32N A40E,nd nd nd,0 of 9
R60W Q95N S103M,4.08 2.90 nd,3 of 9 (4.80)
V39D R60E,nd nd 5.89,4 of 9 (5.34)
V39R A40H H98F,nd 3.39 nd,3 of 9 (3.96)
S25L L30S L102P,0.40 0.56 0.51,0 of 9
S33F Q96N Y97S,3.68 nd nd,0 of 9
Q27F S58V E61Y,2.11 2.46 2.09,0 of 9
L30G N35E A40D,nd nd nd,2 of 9 (4.64)
T59D R99I S103I,nd nd nd,0 of 9
S28C V29W A40E,nd nd nd,1 of 9 (3.67)
Y31F S38T A40I,nd nd nd,0 of 9
Q27C T59Y L102N,1.49 1.66 1.72,2 of 9 (3.89)
Q27H S62M R99T,0.81 1.00 1.06,0 of 9
T59R R60I Y97D,5.87 3.30 4.03,4 of 9 (3.67)
N37F A40V W56C,4.14 5.09 4.57,6 of 9 (4.85)
S28C S33Q E61N,3.47 2.79 nd,2 of 9 (3.89)
S58N T59G Q95R,2.61 2.36 2.82,5 of 9 (4.66)
S26E V29N Q95N,3.82 2.56 4.08,1 of 9 (4.84)
L30Y N37S L100P,nd 4.04 nd,2 of 9 (2.87)
V39M S58N L100K,nd 2.53 nd,0 of 9

Repeated from above, the 3 best binders with a signal in all replicates:

{"changes": "W56E E61T Q96C", "log10 Kd (nM) by replicate": "0.16 0.42 0.32", "signal with controls": "4 of 9 (4.99)"}
{"changes": "S25L L30S L102P", "log10 Kd (nM) by replicate": "0.40 0.56 0.51", "signal with controls": "0 of 9"}
{"changes": "Q27H S62M R99T", "log10 Kd (nM) by replicate": "0.81 1.00 1.06", "signal with controls": "0 of 9"}